Measurements taken from patent publication US8673947B2, “Enhanced migraine treatments based on ghrelin mimetics” (Helsinn Therapeutics (U.S.), Inc., priority 2009, dated 2014).

Assay: Pharmacokinetic two period crossover study of oral sumatriptan with or without anamorelin hydrochloride
Type: in vivo, human
Conditions: plasma sumatriptan; sumatriptan succinate 25 mg oral tablet, alone or with anamorelin HCl 100 mg oral; fasted healthy subjects, N = 22; sampling to 4 hours postdose
Procedure: The study was a two period crossover study in 22 healthy, normal men and women ages 18-45 years, conducted in open label format. Sumatriptan was administered as one oral tablet; anamorelin was administered as 4 25 mg oral capsules; and all medication was given with 200 mL of water. Subjects were fasted overnight with a seven day wash out period between periods. […] All samples were analyzed using a validated bioanalytical method (LC-MS-MS).

With `CNS(=O)(=O)Cc1ccc2[nH]cc(CCN(C)C)c2c1` [Sumatriptan, 1-[3-(2-dimethylaminoethyl)-1H-indol-5-yl]-N-methyl-methanesulfonamide] the “AUC last, Median” value was 45.44 ng·h/mL.
